High-throughput results: PubChem, National Center for Advancing Translational Sciences (NCATS)
EPAC2 antagonist: antagonists of human EPAC2 | EPAC2 GEF exchange of Rap1B-BODIPY-GDP, fluorescence | Potency, µM (doses to about 114 µM), without a hit: top-dose activity, negative = inhibition, hits mostly inhibitors | 0.18% of 360,000 active | AID 720708; further: on the % scale 0 is the no-effect control and ±100 the full control effect; nearly all actives have a fitted effect of over 45% in size
Rango release inh: inhibition of RanGTP-driven Rango-importin beta dissociation; O95149+P62826; Biochemical FRET Rango-importin beta, RanGTP-induced dissociation; Potency, µM (highest dose often 46.1 µM), for inactives: top-dose activity change, negative = inhibition; 0.071% of 340,000 active; AID 540253; calls by dose curve; further: % of control where 0% means no effect; nearly all actives have a fitted effect of over 45% in size
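Recombinant Rango FRET biosensor (EYFP–snurportin 1 IBB–cerulean CFP10) at 0.1 uM premixed with 0.25 uM importin beta in PBS, 1 mM DTT, 0.02% Tween-20, 0.1% BSA. Compound added 5 min; RanGTP-RCC1 (0.6 uM Ran, 2 mM GTP, 0.2 uM RCC1) then triggers release, read at 45 min.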
EPAC1 agonist: activates human EPAC1 exchange factor; O95398; EPAC1 agonist qHTS, biochemical assay; response scale: 100% = response to 6.5 mM cAMP; Potency, µM (top dose mostly 154 µM), for inactives: at the top dose activation, most hits filed as activators; 0.073% of 360,000 active; AID 720707; further: nearly all actives have a fitted effect of over 60% in size
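Compounds were pinned as a concentration titration into mixtures of EPAC1 (100 nM), BODIPY-GDP-loaded Rap1B (250 nM) and GDP (50 uM). After 5 min at room temperature, fluorescence was followed for 30 min; activity was scaled to 6.5 mM cAMP.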
EPAC2 ag: activates human EPAC2 exchange factor. 0.079% of 360,000 active. EPAC2 activation, biochemical qHTS; response scale: 100% = 6.5 mM cAMP response. Q8WZA2. Potency, µM (highest dose often 154 µM), inactives show top-dose activation, hits mostly activators. AID 720711; further: nearly all actives have a fitted effect of over 50% in size
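Fluorescence exchange assay: 100 nM EPAC2 with 250 nM RAP1B-BODIPY-GDP and 50 uM GDP; compounds tested as a concentration-titration series (qHTS). Loss of Rap1-bound BODIPY-GDP fluorescence read at 480/540 nm; data normalized to 6.5 mM cAMP.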
EPAC1 antagonist: EPAC1 (human) antagonism; O95398; EPAC1 GEF assay, Rap1b-BODIPY-GDP exchange fluorescence; Potency, µM (doses to about 115 µM), inactives show top-dose activity change, negative = inhibition, usual class: inhibitors; 0.14% of 360,000 active;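 further: plate controls were vehicle for no effect and positive control for full effect; nearly all actives have a fitted effect of over 50% in size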
Rango-impB inh: Rango-importin beta binding inhibition; 0.031% of 340,000 active; Potency, µM (highest dose often 92.2 µM), inactives show at the top dose inhibition of complex formation; Q14974; Rango CFP/YFP FRET sensor + importin beta, 45 min; calls by dose curve;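 further: 0% = DMSO wells and 100% = buffer wells lacking importin beta; nearly all actives have a fitted effect of over 15% in size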
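FRET biosensor Rango (snurportin 1 IBB between N-terminal EYFP and C-terminal Cerulean), 50 nM in PBS/1 mM DTT/0.02% Tween-20/0.1% BSA, preincubated 5 min RT with compound; 0.125 microM importin beta added, 45 min RT, CFP/YFP FRET ratio read.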
Active calls of the source: *; ? = inconclusive; . = no result. This is a sample that favours compounds with a hit; in the whole collection about 0.48% have one here. Unless noted, the call rests on the fitted dose curve; in most records, active means well fitted curve in the direction sought with a large enough effect; inconclusive means small, poorly fitted or top-dose-only effect, or another doubt; inactive means no such curve, though single readings can be large; an effect the other way counts as inactive or inconclusive. Potency means the concentration at half of the fitted maximal effect.

1: COc1ccc(C(CC(=O)N2CCOCC2)c2c(OC)cc(OC)c3c(-c4ccccc4)cc(=O)oc23)cc1 (stereo unspecified)
2: CCCCC1=CC2=CC(=O)C(C)(OC(=O)CC)C(=O)C2=CN1CC(C)C (stereo unspecified)
3: CCCCC1=CC2=CC(=O)C(C)(OC(=O)CC)C(=O)C2=CN1Cc1ccc(OC)cc1 (stereo unspecified)
4: Oc1ccc(/C(Cc2ccccn2)=N\Nc2ccccc2)c(O)c1
5: CCC1=NN2C(=N)/C(=C\c3ccc(SCc4ccco4)o3)C(=O)N=C2S1
6: O=C1NC(=S)S/C1=C\c1ccc(SCc2ccccc2)o1
7: O=C1NC(=S)S/C1=C\c1ccc(SCc2ccco2)o1
8: Nc1ccc2nc3c(=O)n(C4CCCCC4)c(=O)[nH]c3nc2c1
screen / no.	1	2	3	4	5	6	7	8
Rango release inh	-1%	?	8.2µM*	-20%	-21%	-19%	-28%	-23%
EPAC2 ag	6%	-1%	8%	8%	-2%	14%	9%	45%
Rango-impB inh	0%	?	?	-3%	?	?	?	?
EPAC1 antagonist	5%	16%	6%	?	?	22µM*	?	-33%
EPAC2 antagonist	50µM*	-4%	-5%	45µM*	-3%	?	45µM*	152%
EPAC1 agonist	-9%	-10%	-12%	19%	3%	19%	10%	?

9: Cc1cc2nc3c(=O)n(CCc4ccccc4)c(=O)[nH]c3nc2cc1N
10: CCCCn1c(=O)[nH]c2nc3cc(N)ccc3nc2c1=O
11: Nc1ccc2nc3c(=O)n(CCc4ccccc4)c(=O)[nH]c3nc2c1
12: COc1cc(CC(=O)NNC(=O)c2cc(C)oc2C)cc(OC)c1OC
13: N#C/C(=C\c1coc2ccc(O)cc2c1=O)C(=O)Nc1nc2ccccc2s1
14: Cc1nc2ccccc2c(=O)n1/N=C/c1ccc(O)c(O)c1O
15: Cc1nc2ccccc2c(=O)n1/N=C/c1ccccc1O
16: COc1ccc(C2=Nc3ccccc3N(C(=O)c3ccc(C)cc3)C2C(=O)Nc2c(C)cccc2C)cc1 (stereo unspecified)
screen / no.	9	10	11	12	13	14	15	16
Rango release inh	?	?	?	-1%	?	0%	-7%	.
EPAC2 ag	100µM*	100µM*	63µM*	-5%	32µM*	-4%	-2%	8%
Rango-impB inh	?	?	?	4%	?	-4%	?	.
EPAC1 antagonist	20%	78%	117%	11%	114%	?	79µM*	14%
EPAC2 antagonist	75%	117%	14%	-24%	110%	3%	0%	-1%
EPAC1 agonist	?	100µM*	112µM*	10%	89µM*	7%	10%	4%

17: COc1ccc2c(C)cc(SCC(=O)NC3CCCCC3)nc2c1
18: COc1ccc2c(C)cc(SCC(=O)N3CCOCC3)nc2c1
19: COc1cccc(CNC(=O)[C@@H]2CCCN2C(=O)[C@H]2CCCCN2C(=O)c2cccs2)c1
20: COc1ccc(NC(=S)N2CCc3ccccc3C2)cc1OC
21: COC(=O)c1cc(Br)c(=O)n(CCc2ccc(F)cc2)c1
22: Cc1ccc(CNC(=O)c2cccc3c2C(=O)c2ccc(N4CCCCC4)cc2S3(=O)=O)cc1
23: O=C(NCc1ccco1)c1cccc2c1C(=O)c1ccc(N3CCCC3)cc1S2(=O)=O
24: O=C(NC1CCCCC1)C(c1ccc(C(F)(F)F)cc1)n1c(=O)c(-c2cc3ccccc3[nH]2)nc2ccccc21 (stereo unspecified)
screen / no.	17	18	19	20	21	22	23	24
Rango release inh	0%	-8%	.	-1%	2%	?	?	.
EPAC2 ag	6%	23%	4%	1%	0%	56µM*	56µM*	5%
Rango-impB inh	2%	33µM*	.	-5%	1%	?	?	.
EPAC1 antagonist	-7%	1%	-8%	5%	3%	320%	12%	-12%
EPAC2 antagonist	-1%	2%	4%	-25%	28µM*	309%	11%	-9%
EPAC1 agonist	-2%	16%	-9%	7%	17%	10µM*	89µM*	-5%

An excerpt from above with just EPAC1 antagonist.
nr	Molecule	EPAC1 antagonist
20	COc1ccc(NC(=S)N2CCc3ccccc3C2)cc1OC	5%
21	COC(=O)c1cc(Br)c(=O)n(CCc2ccc(F)cc2)c1	3%
22	Cc1ccc(CNC(=O)c2cccc3c2C(=O)c2ccc(N4CCCCC4)cc2S3(=O)=O)cc1	320%
